Laboratory results reported in ChEMBL document CHEMBL1157539, “Thousands of chemical starting points for antimalarial lead identification” (Nature, 2010).
For part of these data: The highest values were mostly taken out for another list; the other results follow. The entries are a selection whose mix differs from that of the whole data set.

Tested on: Plasmodium falciparum
Test: GSK_TCMDC: Inhibition of Plasmodium falciparum 3D7 LDH activity, using an LDH reporter assay. Test compounds present at 2uM
Format: functional, organism-based

Row | Structure (SMILES) | inhibition
1 | COc1ccc(Cc2cnc3nc(N)nc(N)c3c2C)cc1OC | 0%
2 | N=C(N)c1ccc(Oc2ccc(C(=N)N)cc2)cc1 | 0%
3 | CCCCCc1cnc2nc(N)nc(N)c2c1 | 0%

Tested on: not listed separately
Test: GSK_TCMDC: Inhibition Frequency Index (IFI). The number of non-kinase HTS assays where a compound showed > 50 % inhibition, expressed as a percentage of the number of such assays in which the compound was tested (-0 is zero)
Format: functional

Row | Structure (SMILES) | IFI
4 | COc1ccc(Cc2cnc3nc(N)nc(N)c3c2C)cc1OC | 3.17%
5 | N=C(N)c1ccc(Oc2ccc(C(=N)N)cc2)cc1 | 0%
6 | CCCCCc1cnc2nc(N)nc(N)c2c1 | 2.07%
